Patent US11213027B2, “Combined administration of a penetration agent and a sulfur containing compound to plants” (THE STATE OF ISRAEL, MINISTRY OF AGRICULTURE & RURAL …, priority 2016, dated 2022)
Some compounds may have been tested in ways that are not shown here.

Test system: cv. Early Sweet vines
Test: Bud break on whole vines in a vineyard, Jordan Valley (spur pruning, hot winter)
Format: in vivo, Vitis vinifera
Conditions: Example 3, FIG. 3; 10% ammonium nitrate with 2% Armobreak®; sprayed 15 January

Substance: ammonium nitrate
- bud break: inferior
